Measurements reported in PubChem BioAssay AID504634 (The Scripps Research Institute Molecular Screening Center, 2011).
The entries are a selection whose mix differs from that of the whole data set. Active and inactive are the calls of the source. No stated cut-off is given here; in the data, active means inhibition mostly above about 23% (no sharp cut-off); inactive means mostly below about 18%.

Amino acid sequences for entries named in this document (tags omitted).
UniProt P47898, whole entry: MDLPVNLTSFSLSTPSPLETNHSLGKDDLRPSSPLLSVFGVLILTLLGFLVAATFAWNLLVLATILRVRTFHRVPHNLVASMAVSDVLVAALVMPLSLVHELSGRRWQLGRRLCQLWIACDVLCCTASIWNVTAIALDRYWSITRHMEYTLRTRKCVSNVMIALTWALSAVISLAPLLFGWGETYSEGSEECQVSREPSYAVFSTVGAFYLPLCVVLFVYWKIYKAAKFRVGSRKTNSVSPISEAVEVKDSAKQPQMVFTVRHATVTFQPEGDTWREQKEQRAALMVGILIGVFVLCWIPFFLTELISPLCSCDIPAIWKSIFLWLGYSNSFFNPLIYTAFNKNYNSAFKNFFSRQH

What follows are compounds tested against 5-hydroxytryptamine receptor 5A (Homo sapiens) (UniProt P47898) (assay: inverse agonism at human 5-HT5A receptor – cell-based, luminescence, full-deck HTS, counter-screen for OPRM1-OPRD1 heterodimer inverse agonist project, primary screen (AID 504634;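 further: 0% = cells with DMSO and 100% = no-cell wells with DMSO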)). Settings: HTR5A cell line, at 9.3 µM, active compounds read high.
With `O=C(NCC1(N2CCCCC2)CCCCC1)c1cccc(C(F)(F)F)c1` the inhibition was inactive: -8.36%. For `COc1ccc(NC2CCN(C(=O)OC(C)(C)C)CC2)cc1`, the inhibition was inactive: -4.4%. With `CC(C)c1ccc(C(=O)NCC2(N3CCOCC3)CCCCC2)cc1` the inhibition was inactive: 4.08%. For `CN1CCN(CCOC(=O)C(O)(c2ccccc2)c2ccccc2)CC1`, the inhibition was inactive: 2.59%. With `O=C(NCC1(N2CCOCC2)CCCCC1)c1cc(=O)[nH]c2ccccc12` the inhibition was inactive: 3.93%. For `COc1cc(C(=O)NCC2(N3CCCCC3)CCCCC2)ccc1OC(F)F`, the inhibition was inactive: -14.4%. For `CN(C)c1cccc(C(=O)NCC2(N3CCCCC3)CCCCC2)c1`, the inhibition was inactive: 5.54%. `COc1ccc(CN(CCCl)CCCl)cc1Cl` was tested, and the inhibition was inactive: -8.36%. With `CC(C)c1ccc(NC2CCN(C(=O)OC(C)(C)C)CC2)cc1` the inhibition was inactive: -11.1%. For `O=C(NCC1(N2CCOCC2)CCCCC1)c1cc(F)c(F)cc1Cl`, the inhibition was inactive: 14.2%. In the case of `COc1cc(OC)c(C(=O)NCC2(N(C)C)CCCCC2)cc1OC`, the inhibition is reported as inactive: 10.8%. For `O=C(NCC1(N2CCCCC2)CCCCC1)c1cncc(Br)c1`, the inhibition was inactive: -3.47%. `CN1CCC(Nc2cccc(F)c2)CC1` was tested, and the inhibition was inactive: 7.08%. In the case of `CCCOc1ccc(C(=O)NCC2(N(C)C)CCCCC2)cc1OC`, the inhibition is reported as inactive: -9.77%. For `O=C(NCC1(N2CCOCC2)CCCCC1)c1cc(Br)ccc1Cl`, the inhibition was inactive: 17.2%. `COc1cc(C(=O)NCC2(N3CCOCC3)CCCCC2)cc(OC)c1C` was tested, and the inhibition was inactive: -23.1%. In the case of `COc1ccc(C(=O)NCC2(N3CCOCC3)CCCCC2)cc1OC`, the inhibition is reported as inactive: -15.6%. With `N/C(=N\O)c1c(N)no[n+]1[O-]` the inhibition was inactive: 20.5%. With `CCOC(=O)N1CCC(Nc2ccc(C)cc2)CC1` the inhibition was inactive: -4.56%. In the case of `O=C(OC1CN2CCC1CC2)C1c2ccccc2C=Cc2ccccc21` (stereo not given), the inhibition is reported as inactive: 15.5%. In the case of `CC(C)(C)OC(=O)N1CCC(N(C(=O)c2ccccc2)c2ccc(Cl)cc2)CC1`, the inhibition is reported as inactive: -13.4%. `N#Cc1ccc(C(=O)NCC2(N3CCCCC3)CCCCC2)cc1` was tested, and the inhibition was inactive: -6.15%. For `CCCN1CCC(Nc2cc(OC)cc(OC)c2)CC1`, the inhibition was inactive: -12.9%. For `Cc1cc(N(CCCl)CCCl)ccc1C=O`, the inhibition was inactive: -6.94%. `c1ccc(CN2CCC(Nc3ccccc3)CC2)cc1` was tested, and the inhibition was inactive: 18%. With `CN(C)C1(CNC(=O)c2cccc(C#N)c2)CCCCC1` the inhibition was inactive: 19.7%. In the case of `COc1cc(OC)cc(C(=O)NCC2(N3CCCCC3)CCCCC2)c1`, the inhibition is reported as inactive: 11.9%. For `CC(=O)N(c1ccccc1)C1CCNCC1`, the inhibition was inactive: 6.38%. In the case of `Cc1ccc(NC2(C#N)CCN(Cc3ccccc3)CC2)cc1`, the inhibition is reported as inactive: 4.21%. In the case of `Fc1ccccc1NC1CCN(Cc2ccccc2)CC1`, the inhibition is reported as inactive: 2.88%. `Cc1ccc(C(=O)NCC2(N3CCCCC3)CCCCC2)o1` was tested, and the inhibition was inactive: 3.34%. `CCN1CCC(Nc2cccc(F)c2)CC1` was tested, and the inhibition was inactive: -0.92%. `Cc1ccccc1NC1(C#N)CCN(Cc2ccccc2)CC1` was tested, and the inhibition was inactive: -5.29%. For `Cn1c(=O)[nH]cc(N(CCCl)CCCl)c1=O`, the inhibition was inactive: -5.72%. In the case of `CN(C)c1ccc(C(=O)NCC2(N3CCCCC3)CCCCC2)cc1`, the inhibition is reported as inactive: -18.2%. For `O=C(NCC1(N2CCCCC2)CCCCC1)c1ccco1`, the inhibition was inactive: -17.5%. In the case of `CN1CCC(Nc2ccc(F)c(Cl)c2)CC1`, the inhibition is reported as inactive: -13.4%. For `CCOc1ncccc1C(=O)NCC1(N2CCOCC2)CCCCC1`, the inhibition was inactive: -10.7%. In the case of `CCCOc1ccc(C(=O)NCC2(N(C)C)CCCCC2)cc1`, the inhibition is reported as inactive: -9.73%. With `O=C(O)C1(Nc2ccccc2)CCN(Cc2ccccc2)CC1` the inhibition was inactive: -4.26%. For `CC(C)(C)OC(=O)N1CCC(Nc2ccccc2)CC1`, the inhibition was inactive: -4.7%. In the case of `CCC(CO)(C(=O)OC1CN2CCC1CC2)c1ccccc1` (stereo not given), the inhibition is reported as inactive: -18.8%. For `COc1cccc(C(=O)N(c2cc(C)cc(C)c2)C2CCN(C(=O)OC(C)(C)C)CC2)c1`, the inhibition was inactive: -4.29%. In the case of `COc1cc(OC)cc(C(=O)NCC2(N3CCOCC3)CCCCC2)c1`, the inhibition is reported as inactive: -18%. In the case of `CN1CCC(Nc2ccc(Cl)cc2)CC1`, the inhibition is reported as inactive: 22.1%.
